Assay results published in patent US11040981B2, “Pyrrolotriazine compounds and methods of inhibiting TAM kinases” (Syros Pharmaceuticals, Inc., priority 2017, dated 2021).

Protein sequences, listed by entry. Tags and fused reporters are not part of them. Residues count along the entry.
UniProt Q06418, 41-890 limits assumed: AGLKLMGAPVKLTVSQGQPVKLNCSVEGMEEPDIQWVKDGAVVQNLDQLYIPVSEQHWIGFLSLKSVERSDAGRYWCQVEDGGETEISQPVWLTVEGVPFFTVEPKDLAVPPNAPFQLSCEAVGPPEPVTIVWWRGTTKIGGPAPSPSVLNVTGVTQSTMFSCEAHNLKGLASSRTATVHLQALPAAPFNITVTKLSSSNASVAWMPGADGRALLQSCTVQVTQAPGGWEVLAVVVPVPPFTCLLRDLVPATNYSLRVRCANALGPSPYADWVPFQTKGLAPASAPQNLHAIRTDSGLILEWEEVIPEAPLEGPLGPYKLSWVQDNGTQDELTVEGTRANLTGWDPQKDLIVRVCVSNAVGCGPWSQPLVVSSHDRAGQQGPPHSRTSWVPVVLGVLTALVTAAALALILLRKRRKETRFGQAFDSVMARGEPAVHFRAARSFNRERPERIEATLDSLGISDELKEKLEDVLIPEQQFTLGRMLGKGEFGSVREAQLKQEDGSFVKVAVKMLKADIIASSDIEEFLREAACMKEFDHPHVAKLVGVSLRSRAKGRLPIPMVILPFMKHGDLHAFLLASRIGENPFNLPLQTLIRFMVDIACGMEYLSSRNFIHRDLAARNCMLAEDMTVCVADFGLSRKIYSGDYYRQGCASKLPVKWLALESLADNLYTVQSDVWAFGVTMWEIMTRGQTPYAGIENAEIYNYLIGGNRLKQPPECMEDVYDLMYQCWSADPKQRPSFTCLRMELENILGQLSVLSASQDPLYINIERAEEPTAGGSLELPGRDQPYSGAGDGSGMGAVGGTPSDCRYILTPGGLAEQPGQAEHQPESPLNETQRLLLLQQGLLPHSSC
UniProt P30530, 26-894 limits assumed: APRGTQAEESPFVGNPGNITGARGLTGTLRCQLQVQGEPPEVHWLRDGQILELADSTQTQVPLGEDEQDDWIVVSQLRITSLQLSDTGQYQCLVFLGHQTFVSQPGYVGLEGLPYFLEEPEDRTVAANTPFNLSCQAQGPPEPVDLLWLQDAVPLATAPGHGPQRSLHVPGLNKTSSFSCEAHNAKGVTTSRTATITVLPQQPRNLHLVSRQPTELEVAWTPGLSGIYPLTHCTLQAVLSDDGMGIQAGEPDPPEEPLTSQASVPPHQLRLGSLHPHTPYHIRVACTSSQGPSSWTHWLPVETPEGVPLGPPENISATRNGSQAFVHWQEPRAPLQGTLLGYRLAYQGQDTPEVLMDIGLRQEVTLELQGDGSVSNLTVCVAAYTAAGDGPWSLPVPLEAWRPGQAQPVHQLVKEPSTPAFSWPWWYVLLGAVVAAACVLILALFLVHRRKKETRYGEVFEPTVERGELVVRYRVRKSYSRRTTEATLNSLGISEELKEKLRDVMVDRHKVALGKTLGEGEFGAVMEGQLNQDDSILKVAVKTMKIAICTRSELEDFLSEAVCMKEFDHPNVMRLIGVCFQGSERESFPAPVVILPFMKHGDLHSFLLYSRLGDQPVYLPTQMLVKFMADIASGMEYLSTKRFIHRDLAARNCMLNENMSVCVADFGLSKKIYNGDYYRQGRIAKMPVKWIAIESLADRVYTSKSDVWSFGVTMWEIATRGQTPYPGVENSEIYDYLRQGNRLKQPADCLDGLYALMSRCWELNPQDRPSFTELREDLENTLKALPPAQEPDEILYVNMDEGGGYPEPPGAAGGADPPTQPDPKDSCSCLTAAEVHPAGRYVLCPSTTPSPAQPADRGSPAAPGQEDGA
UniProt P36888, 27-993 limits assumed: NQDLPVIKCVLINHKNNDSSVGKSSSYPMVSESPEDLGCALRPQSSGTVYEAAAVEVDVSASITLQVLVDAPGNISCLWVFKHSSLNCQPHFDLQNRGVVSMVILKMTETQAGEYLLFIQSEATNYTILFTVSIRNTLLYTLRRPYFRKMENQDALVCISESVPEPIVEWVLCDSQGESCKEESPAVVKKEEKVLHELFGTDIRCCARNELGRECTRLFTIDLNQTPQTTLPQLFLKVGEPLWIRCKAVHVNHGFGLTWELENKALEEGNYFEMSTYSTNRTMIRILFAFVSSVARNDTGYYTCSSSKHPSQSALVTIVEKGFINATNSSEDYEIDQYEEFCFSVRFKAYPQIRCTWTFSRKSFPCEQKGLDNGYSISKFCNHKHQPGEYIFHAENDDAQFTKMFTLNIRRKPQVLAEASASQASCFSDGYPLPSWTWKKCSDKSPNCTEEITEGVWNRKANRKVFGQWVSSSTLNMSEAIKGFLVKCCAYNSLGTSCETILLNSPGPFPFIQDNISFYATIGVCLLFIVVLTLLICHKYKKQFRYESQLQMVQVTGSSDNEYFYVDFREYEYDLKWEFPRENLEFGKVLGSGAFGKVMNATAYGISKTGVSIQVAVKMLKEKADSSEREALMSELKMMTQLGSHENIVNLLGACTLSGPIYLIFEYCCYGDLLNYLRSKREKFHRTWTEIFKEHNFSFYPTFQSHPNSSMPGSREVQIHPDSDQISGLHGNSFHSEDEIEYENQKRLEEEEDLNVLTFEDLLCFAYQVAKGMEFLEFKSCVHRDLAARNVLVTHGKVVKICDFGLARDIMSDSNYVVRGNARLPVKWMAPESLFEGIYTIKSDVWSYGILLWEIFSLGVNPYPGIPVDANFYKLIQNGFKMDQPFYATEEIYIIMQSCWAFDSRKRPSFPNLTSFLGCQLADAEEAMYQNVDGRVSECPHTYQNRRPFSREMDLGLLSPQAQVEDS
UniProt Q12866, 21-999 limits assumed: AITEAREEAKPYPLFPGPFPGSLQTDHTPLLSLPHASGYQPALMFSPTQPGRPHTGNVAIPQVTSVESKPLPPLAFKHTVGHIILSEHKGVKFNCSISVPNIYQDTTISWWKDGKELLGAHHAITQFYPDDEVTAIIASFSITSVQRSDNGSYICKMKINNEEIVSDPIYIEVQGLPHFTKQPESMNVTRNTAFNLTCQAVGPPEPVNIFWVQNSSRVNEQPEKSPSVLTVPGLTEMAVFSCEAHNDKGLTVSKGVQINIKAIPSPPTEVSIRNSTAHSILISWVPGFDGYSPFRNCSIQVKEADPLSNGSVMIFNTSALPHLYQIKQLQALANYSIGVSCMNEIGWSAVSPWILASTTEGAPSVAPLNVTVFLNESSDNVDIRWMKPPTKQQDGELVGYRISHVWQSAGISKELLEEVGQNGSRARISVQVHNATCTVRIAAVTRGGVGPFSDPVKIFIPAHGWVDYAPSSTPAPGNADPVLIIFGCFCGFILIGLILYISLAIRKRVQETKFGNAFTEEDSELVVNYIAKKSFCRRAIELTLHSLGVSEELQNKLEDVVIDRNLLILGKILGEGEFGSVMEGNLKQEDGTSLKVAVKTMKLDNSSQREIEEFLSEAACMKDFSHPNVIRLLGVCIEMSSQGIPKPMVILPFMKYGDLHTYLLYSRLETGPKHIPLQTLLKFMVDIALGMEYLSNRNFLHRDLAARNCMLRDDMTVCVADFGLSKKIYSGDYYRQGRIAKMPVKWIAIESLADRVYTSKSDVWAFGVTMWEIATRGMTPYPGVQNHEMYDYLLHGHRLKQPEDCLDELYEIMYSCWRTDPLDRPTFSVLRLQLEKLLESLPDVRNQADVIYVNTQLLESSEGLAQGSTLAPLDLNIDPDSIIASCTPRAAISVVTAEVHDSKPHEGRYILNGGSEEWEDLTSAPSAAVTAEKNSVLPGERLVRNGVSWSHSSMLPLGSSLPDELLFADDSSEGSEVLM

Columns and labels:
TYRO3 = TYRO3 (Homo sapiens, UniProt Q06418); assay: TR-FRET kinase activity assay, TYRO3; details: read-out: Tyro3 IC50, ATP at Km, 60 minutes
Experimental: (§1) IC50 values for compound inhibition of AXL, FLT3, MERTK and TYRO3 activity were determined by using a TR-FRET activity assay. A polypeptide substrate with a fluorescent label is phosphorylated on a tyrosine by each enzyme, where the now phosphorylated product is bound by a Europium-labeled antibody specific to that phosphorylation site. The proximity between the antibody and the substrate gives a signal known as TR-FRET. As the enzyme is inhibited by compound, less phosphorylated peptide product is made causing a decrease in overall signal.
(§2) Activity assays were performed in a 384-well, small volume, black microplates in an active enzyme volume of 10 μL and final developed volume of 20 μL. Final assay conditions are 50 mM HEPES pH 7.5, 10 mM MgCl2, 1 mM EGTA, 0.01% Brij 35 and 1 mM DTT all at RT. Enzyme, substrate labeled peptide and compound are mixed, and then the reaction is initiated with the addition of ATP at Km concentration for each enzyme. The reaction is allowed to run 60 minutes and then quenched with a 12.5 mM EDTA (ethylenediamine tetraacetic acid) solution. The plate is then developed with the addition of Europium labeled antibody for a final volume of 20 μL and is then incubated for 30 minutes in darkness. Plates are read in a Pherastar plate reader. Data is analyzed in GraphPad PRISM.
(§3) The results of these assays are shown in Table 1, below, wherein “No.” designates compound number (FIG. 1); “A” represents a value of ≤100 nM; “B” a value of >100 nM and ≤1 μM; “C” a value of >1 μM and ≤10 μM; “D” a value of >10 μM; “ND” is not determined. The ratio of Mer to FLT3 is calculated as follows: FLT3 IC50/Mer IC50. “+” represents a ratio of >2.0 and <10; “++” represents a ratio of between 10 and 100; and “+++” represents a ratio of >100.

AXL = AXL (Homo sapiens, UniProt P30530); assay: TR-FRET kinase activity assay, AXL; details: read-out: Axl IC50, ATP at Km, 60 minutes
Experimental: as §1, §2, §3

FLT3 = FLT3 (Homo sapiens, UniProt P36888); assay: TR-FRET kinase activity assay, FLT3; details: read-out: Flt3 IC50, ATP at Km, 60 minutes
MERTK = MERTK (Homo sapiens, UniProt Q12866); assay: TR-FRET kinase activity assay, MERTK; details: for pIC50: read-out: Mer IC50, TR-FRET activity assay, ATP at Km, 60 minutes
Experimental: as §1, §2, §3

[1] = ratio calculated as FLT3 IC50/Mer IC50
[2] = ratio of Mer to FLT3: FLT3 IC50/Mer IC50

| Structure (SMILES) | pIC50 (TYRO3) | pIC50 (AXL) | pIC50 (FLT3) | FLT3/Mer ratio (FLT3 IC50/Mer IC50) (MERTK; [1]) | pIC50 (MERTK) | FLT3/Mer ratio (FLT3 IC50/Mer IC50) (MERTK; [2]) |
| --- | --- | --- | --- | --- | --- | --- |
| C[C@@H](Nc1ncc2c(-c3cnn(C4COC4)c3)cc([C@H]3CC[C@H](O)CC3)n2n1)C1COC1 | > 7.00 | 5.00 to 6.00 | 5.00 to 6.00 | ++ (“++” represents a ratio of between 10 and 100) | 6.00 to 7.00 | – |
| C[C@H](Nc1ncc2c(-c3cnn(C4COC4)c3)cc([C@H]3CC[C@H](O)CC3)n2n1)C1COC1 | > 7.00 | 6.00 to 7.00 | > 7.00 | ++ (“++” represents a ratio of between 10 and 100) | > 7.00 | – |
| COC[C@H](C)Nc1ncc2c([C@@H]3CCCN(S(C)(=O)=O)C3)cc([C@H]3CC[C@H](O)CC3)n2n1 | 6.00 to 7.00 | 5.00 to 6.00 | 5.00 to 6.00 | +++ (“+++” represents a ratio of >100) | > 7.00 | – |
| C[C@@H](Nc1ncc2c(-c3cnn(C4COC4)c3)cc([C@H]3CC[C@H](O)CC3)n2n1)c1ccccn1 | > 7.00 | 5.00 to 6.00 | 6.00 to 7.00 | + (“+” represents a ratio of >2.0 and <10) | > 7.00 | – |
| COC[C@H](C)Nc1ncc2c(C3=CC[C@@H](C(=O)N4CCOCC4)CC3)cc([C@H]3CC[C@H](O)CC3)n2n1 | > 7.00 | > 7.00 | 6.00 to 7.00 | +++ (“+++” represents a ratio of >100) | > 7.00 | – |
| C[C@@H](Nc1ncc2c(-c3cnn(C4COC4)c3)cc([C@H]3CC[C@H](O)CC3)n2n1)c1ccccc1 | > 7.00 | 5.00 to 6.00 | < 5.00 | +++ (“+++” represents a ratio of >100) | > 7.00 | – |
| COC[C@H](C)Nc1ncc2c([C@H]3CCCNC3)cc([C@H]3CC[C@H](O)CC3)n2n1 | > 7.00 | 6.00 to 7.00 | < 5.00 | +++ (“+++” represents a ratio of >100) | > 7.00 | – |
| COC[C@H](C)Nc1ncc2c(-c3cnn(C4COC4)c3)cc([C@H]3CC[C@H](N(C)C)CC3)n2n1 | > 7.00 | 6.00 to 7.00 | 6.00 to 7.00 | ++ (“++” represents a ratio of between 10 and 100) | > 7.00 | – |
| COC[C@H](C)Nc1ncc2c([C@@H]3CCCN(C(=O)OC(C)(C)C)C3)cc([C@H]3CC[C@H](O)CC3)n2n1 | 5.00 to 6.00 | 5.00 to 6.00 | < 5.00 | +++ (“+++” represents a ratio of >100) | > 7.00 | – |
| COCC[C@H](C)Nc1ncc2c(-c3ccc(CN4CCOCC4)cc3)cc([C@H]3CC[C@H](O)CC3)n2n1 | > 7.00 | 6.00 to 7.00 | 6.00 to 7.00 | – | > 7.00 | ++ (“++” represents a ratio of between 10 and 100) |
| COC[C@H](C)Nc1ncc2c(-c3ccc(CN4CCOCC4)cc3)cc([C@H]3CC[C@H](N)CC3)n2n1 | > 7.00 | > 7.00 | 6.00 to 7.00 | – | > 7.00 | +++ (“+++” represents a ratio of >100) |
| C[C@H](Nc1ncc2c(-c3cnn(C4COC4)c3)cc([C@H]3CC[C@H](O)CC3)n2n1)c1ccccc1 | > 7.00 | > 7.00 | 5.00 to 6.00 | +++ (“+++” represents a ratio of >100) | > 7.00 | – |
| COCC(C)Nc1ncc2c(-c3cnn(C4COC4)c3)cc(C3CCC(O)C3)n2n1 (stereo not drawn) | > 7.00 | 6.00 to 7.00 | 6.00 to 7.00 | ++ (“++” represents a ratio of between 10 and 100) | > 7.00 | – |
| COC[C@H](C)Nc1ncc2c(-c3cnn(C4COC4)c3)cc([C@H]3CC[C@@H](F)CC3)n2n1 | > 7.00 | > 7.00 | 6.00 to 7.00 | +++ (“+++” represents a ratio of >100) | > 7.00 | – |
| COC[C@H](C)Nc1ncc2c([C@@H]3CCCNC3)cc([C@H]3CC[C@H](O)CC3)n2n1 | > 7.00 | 6.00 to 7.00 | 5.00 to 6.00 | +++ (“+++” represents a ratio of >100) | > 7.00 | – |
| COC[C@H](C)Nc1ncc2c(-c3cnn(C4COC4)c3)cc(C3CCS(=N)(=O)CC3)n2n1 (stereo partly drawn) | 6.00 to 7.00 | 5.00 to 6.00 | 5.00 to 6.00 | +++ (“+++” represents a ratio of >100) | > 7.00 | – |

More lines, main results first:

| pIC50 (TYRO3) | pIC50 (AXL) | pIC50 (FLT3) | FLT3/Mer ratio (FLT3 IC50/Mer IC50) (MERTK; [1]) | pIC50 (MERTK) | Structure (SMILES) | FLT3/Mer ratio (FLT3 IC50/Mer IC50) (MERTK; [2]) |
| --- | --- | --- | --- | --- | --- | --- |
| > 7.00 | 6.00 to 7.00 | 5.00 to 6.00 | +++ (“+++” represents a ratio of >100) | > 7.00 | COC[C@H](C)Nc1ncc2c(-c3cnn(C(C)(C)C(=O)N4CCOCC4)c3)cc(C3CCCc4[nH]ncc43)n2n1 (stereo partly drawn) | – |
| > 7.00 | 6.00 to 7.00 | 5.00 to 6.00 | +++ (“+++” represents a ratio of >100) | > 7.00 | COC[C@H](C)Nc1ncc2c(-c3cnn(C(CO)CCl)c3)cc([C@H]3CC[C@@H](N(C)C)CC3)n2n1 (stereo partly drawn) | – |
| > 7.00 | > 7.00 | 5.00 to 6.00 | +++ (“+++” represents a ratio of >100) | > 7.00 | COC[C@H](C)Nc1ncc2c([C@H]3CCCN(S(C)(=O)=O)C3)cc([C@H]3CC[C@H](O)CC3)n2n1 | – |
| > 7.00 | > 7.00 | 6.00 to 7.00 | +++ (“+++” represents a ratio of >100) | > 7.00 | COC[C@H](C)Nc1ncc2c(-c3cnn(C(CO)CCl)c3)cc([C@H]3CC[C@H](N(C)C)CC3)n2n1 (stereo partly drawn) | – |
| > 7.00 | 6.00 to 7.00 | 5.00 to 6.00 | +++ (“+++” represents a ratio of >100) | > 7.00 | COC[C@H](C)Nc1ncc2c(-c3cnn(C4COC4)c3)cc([C@@H]3CC[C@@H](O)C3)n2n1 | – |
| > 7.00 | 6.00 to 7.00 | 5.00 to 6.00 | +++ (“+++” represents a ratio of >100) | > 7.00 | COC[C@H](C)Nc1ncc2c([C@H]3CCCN(C(=O)OC(C)(C)C)C3)cc([C@H]3CC[C@H](O)CC3)n2n1 | – |
| > 7.00 | > 7.00 | 5.00 to 6.00 | +++ (“+++” represents a ratio of >100) | > 7.00 | COC[C@H](C)Nc1ncc2c(C3CC4CCC(C3)N4C(=O)OC(C)(C)C)cc([C@H]3CC[C@H](O)CC3)n2n1 (stereo partly drawn) | – |
| > 7.00 | 6.00 to 7.00 | 6.00 to 7.00 | +++ (“+++” represents a ratio of >100) | > 7.00 | COC[C@H](C)Nc1ncc2c(-c3cnn(C4COC4)c3)cc([C@H]3CC[C@@H](N(C)C)CC3)n2n1 | – |

pIC50: −log10 of the molar value.
